According to patent US20250170254A1, “Subdermal Implant for Sustained Drug Delivery” (OAK CREST INSTITUTE OF SCIENCE, priority 2022, published 2025):

How the values were obtained:
[1] = In vitro BSA release through ePTFE membranes into 1×PBS (FIG. 37B); conditions: depot of 33% w/v BSA in monoolein

## bovine serum albumin [BSA]
100% BSA powder, no excipients, over 28 d, 37° C.
  release from ePTFE implant: did not appreciably release
BSA 30% w/w paste with monoolein 70% w/w, over 8 d
  release rate (slope of linear regression): 1.7 mg/day
BSA 30% w/w paste with monoolein 70% w/w, over 8 d, 37° C.
  release profile from ePTFE implant: released linearly
BSA 50% w/w with D-(+)-trehalose 45% w/w and L-histidine hydrochloride 5% w/w, 37° C.
  time to release BSA payload: ≤ 2 days
[1]; 0.17 mm, sintered ePTFE
  BSA release rate: 0.24 mg/day
[1]; unsintered, 0.24 mm ePTFE
  BSA release rate: 0.75 mg/day
